The chains behind the UniProt entries cited, without tags or fusion partners. Residues count along the entry.
UniProt P14780, 107-707 limits assumed: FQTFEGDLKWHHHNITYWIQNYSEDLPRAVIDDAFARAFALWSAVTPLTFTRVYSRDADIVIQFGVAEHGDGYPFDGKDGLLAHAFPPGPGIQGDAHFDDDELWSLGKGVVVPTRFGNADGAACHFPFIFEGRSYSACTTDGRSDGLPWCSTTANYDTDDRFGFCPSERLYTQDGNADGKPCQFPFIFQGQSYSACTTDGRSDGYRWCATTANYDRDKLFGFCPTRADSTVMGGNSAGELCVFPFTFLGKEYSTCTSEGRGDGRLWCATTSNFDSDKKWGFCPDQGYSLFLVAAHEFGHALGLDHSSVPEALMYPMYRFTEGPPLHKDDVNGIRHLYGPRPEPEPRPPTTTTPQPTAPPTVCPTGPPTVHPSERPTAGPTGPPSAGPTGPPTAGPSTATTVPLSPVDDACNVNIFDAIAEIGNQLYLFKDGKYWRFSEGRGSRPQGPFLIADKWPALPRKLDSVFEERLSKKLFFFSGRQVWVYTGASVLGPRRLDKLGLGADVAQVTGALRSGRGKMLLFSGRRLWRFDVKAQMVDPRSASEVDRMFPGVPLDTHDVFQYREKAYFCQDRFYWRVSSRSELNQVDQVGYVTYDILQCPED

In patent US9867805B2 (dated 2018):

Legend:
Assay in all cases: biochemical
human MMP-2 = target: T1, human MMP-2 (Homo sapiens, UniProt P08253)
T1 sequence (P08253 110-660): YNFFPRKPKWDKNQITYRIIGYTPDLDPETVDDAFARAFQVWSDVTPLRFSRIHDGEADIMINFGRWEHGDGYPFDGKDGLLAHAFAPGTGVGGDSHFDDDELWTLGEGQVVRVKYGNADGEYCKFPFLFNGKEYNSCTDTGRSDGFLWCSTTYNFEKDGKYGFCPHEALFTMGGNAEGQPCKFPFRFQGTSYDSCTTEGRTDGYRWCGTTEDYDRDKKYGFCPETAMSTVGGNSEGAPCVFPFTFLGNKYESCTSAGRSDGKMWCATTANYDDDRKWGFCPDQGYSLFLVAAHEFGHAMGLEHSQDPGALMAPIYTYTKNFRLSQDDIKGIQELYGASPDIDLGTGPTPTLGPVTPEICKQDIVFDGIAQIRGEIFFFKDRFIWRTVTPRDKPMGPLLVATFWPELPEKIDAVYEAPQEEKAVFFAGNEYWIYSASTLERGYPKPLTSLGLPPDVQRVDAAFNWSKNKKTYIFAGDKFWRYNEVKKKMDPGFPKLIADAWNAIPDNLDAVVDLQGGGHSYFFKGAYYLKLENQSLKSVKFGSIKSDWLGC

human MMP-9 = human MMP-9 (Homo sapiens, UniProt P14780)
MMP-7 = target: T2, MMP-7 (Homo sapiens, UniProt P09237)
T2 sequence (P09237 95-267): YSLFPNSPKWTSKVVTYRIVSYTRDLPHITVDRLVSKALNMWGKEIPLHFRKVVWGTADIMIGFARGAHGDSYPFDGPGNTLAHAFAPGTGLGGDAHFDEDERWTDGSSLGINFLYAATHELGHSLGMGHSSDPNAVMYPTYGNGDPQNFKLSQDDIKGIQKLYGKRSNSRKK

MMP-14 = MMP-14 (Homo sapiens, UniProt P50281)

Row | SMILES | Ki (human MMP-2) | Ki (human MMP-9) | Ki (MMP-7) | Ki (MMP-14)
1 | N=C(N)NCCCC(N)C(=O)NC(CCCNC(=N)N)C(=O)Nc1ccc(Oc2ccc(S(=O)(=O)CC3CS3)cc2)cc1 (stereo not shown) [Compound 11e] | 0.42 ± 0.15 µM | 18.7 ± 5.6 µM |  | 
2 | N=C(N)NCCCC(N)C(=O)Nc1ccc(Oc2ccc(S(=O)(=O)CC3CS3)cc2)cc1 (stereo not shown) [Compound 11d] |  |  | 160 ± 14 µM | 28.9 ± 2.3 µM
